## Binding of CDR-mutated scFvs to a peptide of the spike HR2 region

The measurements come from Li et al. 2023 (doi:10.1038/s41467-023-39022-2) through the FLAb antibody collection.

Target: peptide PDVDLGDISGINAS, taken from heptad repeat 2 (HR2) of SARS-CoV-2 spike.

Ab-14 is the parent antibody, in scFv form: VH, then three GGGGS repeats, then VL. The light chain is unchanged in all variants.
VH: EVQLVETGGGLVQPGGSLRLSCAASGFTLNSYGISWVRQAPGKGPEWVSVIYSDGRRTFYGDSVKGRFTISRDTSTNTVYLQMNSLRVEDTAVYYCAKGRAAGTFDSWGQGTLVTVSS
VL: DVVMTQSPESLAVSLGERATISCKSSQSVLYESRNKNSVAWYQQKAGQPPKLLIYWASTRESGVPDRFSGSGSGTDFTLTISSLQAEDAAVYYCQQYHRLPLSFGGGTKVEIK

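Designed CDR sequences, proposed from the first random library and measured here. Several design methods are mixed in this list. The assay is AlphaSeq: two haploid yeast populations carry antibody and antigen on their surface. Binding brings cells together so that they mate, and sequencing counts the barcode pairs among the diploids. Scores were corrected for input abundance and mapped to Kd with protein pairs of known affinity run in the same pool. There are six technical replicates.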

Each variant is given by its three heavy chain CDRs, as the data file delimits them; those of the parent are GFTLNSYGIS, VIYSDGRRTFYGDSVK, GRAAGTFDS.
This list holds designs with more than six substitutions.
The Kd shown is the geometric mean over detected replicates; a lower Kd is a better binder.
Where no diploid with the target was found in any replicate, the entry reads "nd": below detection, most likely a poor binder, though not proof of it.
In the paper, a design with two or fewer of six values counts as a poor binder.

| CDR-H1 | CDR-H2 | CDR-H3 | apparent Kd | seen in |
|---|---|---|---|---|
| GFNLNEYGIS | VIYADGRRTFYTDSVK | GEFAGTFDL | 930 pM | 6/6 |
| GFYLNEYGIS | VIYADGIRSVYANKVK | GNGAGTLDY | nd | 0/6 |
| GFDLNEYGIS | VIYADGMRTAYADNVK | GNVAGTFDM | 400 pM | 6/6 |
| GFDLNEYGIS | VIYADGRRTFYADSVK | GSEAGTFNV | 220 pM | 6/6 |
| GDSLDEYGIS | VIYADGQRKAYMDTVK | GNGQGTLFD | nd | 0/6 |
| GFDLNEYGIS | VIYADGKRTAYADSVK | GEQAGTFDV | 910 pM | 6/6 |
| GFDLNEYGIS | VIYADGMRTAYADQVK | GENAGTFDV | 680 pM | 6/6 |
| GFDLDEYGIS | VIYADGQRTAYVDSVK | GNQAGTFDV | 800 pM | 6/6 |
| GFNLDEQGIS | VIYADGMRTVYAQNVK | GQNVEFTVF | nd | 0/6 |
| GFDLSEYGIS | VIYADGRRFSYKDAVK | GQVEGMLDV | 160 nM | 1/6 |
| GFNLNEYGIS | VIYADGMRTFYTDSVK | GEVAGTFDN | 1.3 nM | 6/6 |
| GFDLNEYGIS | VIYADGMRTFYIDSVK | GETAGTFDQ | 310 pM | 6/6 |
| GFDLNEYGIS | VIYADGRRTAYSDDVK | GENAGTFDV | 510 pM | 6/6 |
| GFNLEEYGIS | VIYADGKRTQYSENVK | GHKGNVRTV | nd | 0/6 |
| KFDIEEYGIS | VIYADGERTSYSNAVK | GNMGGTFQT | 27 nM | 1/6 |
| GFDLNEYGIS | VIYADGMRTAYTDSVK | GEVAGTFDI | 500 pM | 6/6 |
| FNIGEDYGIS | VIYADGLRSAYVNSVK | GEVAGTFDS | 100 nM | 2/6 |
| GFDLSEYGIS | VIYADGMRTAYADSVK | GNVAGTFDL | 360 pM | 6/6 |
| GFDLESYGIS | VIYADGSRTAYADSVK | GNVAGTFNM | 5.2 nM | 6/6 |
| GFDLNEYGIS | VIYADGVRTAYSDSVK | GTNAGTFDI | 1.3 nM | 6/6 |
| GFDLNEYGIS | VIYADGSRTAYVDSVK | GNVAGTFDV | 310 pM | 6/6 |
| GFDLNEYGIS | VIYADGKRTAYADSVK | GNVAGTFTL | 1.1 nM | 6/6 |
| GFDLNEYGIS | VIYADGRRTFYADSVK | GNAAGTFIL | 3.1 nM | 6/6 |
| GFDLNEYGIS | VIYADGRRTFYLDSVK | GQLAGTFDV | 270 pM | 6/6 |
| GFDLNEYGIS | VIYADGRRTFYSDNVK | GQNAGTFDS | 470 pM | 6/6 |
| GFQLDEYGIS | VIYADGMRASYINSAK | GNYGIVFTV | nd | 0/6 |
| GFDLDEYGIS | VIYADGMRTFYADSVK | GTLAGTFDA | 920 pM | 6/6 |
| GFDLDEYGIS | VIYADGKRRAYESKVK | GQSGSSVVN | nd | 0/6 |
| GFDINEYGIS | VIYADGQRVAYTNSFK | GTQSGNNIN | nd | 0/6 |
| GFNLDEYGVS | VIYADGKRCQYTNNFK | GENAGFFML | nd | 0/6 |
| GFDLNEYGIS | VIYADGMRTAYADDVK | GANAGTFDV | 270 pM | 6/6 |
| GFDLDEYGIS | VIYADGMRTVYADSVK | GNVAGTFDQ | 840 pM | 6/6 |
| GFDLNEYGIS | VIYADGRRTFYTDSVK | GEVAGTFDE | 210 pM | 6/6 |
| GNSLDEYGIS | VIYADGMRTAYTDDVK | GLVAGTLVD | 22 nM | 6/6 |
| GFDLNEYGIS | VIYADGKRSFYADSVK | GQLAGTFDV | 430 pM | 6/6 |
| GFDLESYGIS | VIYADGRRTFYADKVK | GNNAGTFDI | 5.5 nM | 6/6 |
| GKTLDEYGIS | VIYADGMRTSYIDSVK | GGIDGWRMI | nd | 0/6 |
| GFDLNEYGIS | VIYADGRRTFYSDSVK | GQVAGTFDK | 120 pM | 6/6 |
| GDSLDEYGIS | VIYADGQRKAYMDNVK | GNGQAVLFD | nd | 0/6 |
| GFDLESYGIS | VIYADGMRTSYTQNVK | GQNVMIMTG | nd | 0/6 |
| GFDLNEYGIS | VIYADGRRTYYIDSVK | GEQAGTFDS | 330 pM | 6/6 |
| GKSLDEYGIS | VIYADGLRSVYANSVK | GQFDDTKDL | nd | 0/6 |
| GDDLQEYGIS | VIYADGLRTAYGNKVK | GGSNGRITV | nd | 0/6 |
| GFDLNEYGIS | VIYADGKRTAYANSVK | GEVAGTFDI | 350 pM | 6/6 |
| GFNLEDYGIS | VIYADGHRASMVESVK | GHLAGTFDE | 2.0 nM | 6/6 |
| GFDLDEYGIS | VIYADGVRMAYIDSVK | GNWSGRIMY | nd | 0/6 |
| GFDLNEYGIS | VIYADGQRTSYADSVK | GEVAGTFDV | 33 nM | 5/6 |
| GFDLNEYGIS | VIYADGKRTAYTDSVK | GEAAGTFDL | 390 pM | 6/6 |
| GFDLNEYGIS | VIYADGRRTAYADSVK | GTVAGTFNV | 470 pM | 6/6 |
| GFDLDEYGIS | VIYADGQRTAYSDDVK | GENAGTFDV | 1.3 nM | 6/6 |
| GFDLNEYGIS | VIYADGRRTFYSDSVK | GEIAGFFDV | 770 nM | 1/6 |
| GFGLDEYGIS | VIYADGRRTFYADSVK | GENAGTFLV | 17 nM | 5/6 |
| GMDLGEYGIS | VIYADGVRQSYVDKVK | GFNGVDLLV | 310 nM | 5/6 |
| GFDLNEYGIS | VIYADGMRTQYSDSVK | GNVAGTFDV | 340 pM | 6/6 |
| GKDIDEYGIS | VIYADGRRTFVIDSVK | GMNSDFVLA | nd | 0/6 |
| GFSLDEMGIS | VIYADGQRSFYQASVK | GVNSGTFFV | nd | 0/6 |

For reference, 8 entries of the list once more:

CDR-H1	CDR-H2	CDR-H3	apparent Kd	seen in
GKSLDEYGIS	VIYADGLRSVYANSVK	GQFDDTKDL	nd	0/6
GFDLNEYGIS	VIYADGKRTAYADSVK	GNVAGTFTL	1.1 nM	6/6
KFDIEEYGIS	VIYADGERTSYSNAVK	GNMGGTFQT	27 nM	1/6
GFDINEYGIS	VIYADGQRVAYTNSFK	GTQSGNNIN	nd	0/6
GFSLDEMGIS	VIYADGQRSFYQASVK	GVNSGTFFV	nd	0/6
GFYLNEYGIS	VIYADGIRSVYANKVK	GNGAGTLDY	nd	0/6
GNSLDEYGIS	VIYADGMRTAYTDDVK	GLVAGTLVD	22 nM	6/6
GFDLNEYGIS	VIYADGVRTAYSDSVK	GTNAGTFDI	1.3 nM	6/6

The range of this assay differs from that of the first round, and the authors advise against merging the two.
Three control strains display no target. For all heavy chain designs, 1% of the pairings with them gave a signal, with a median of 120 nM and one signal in twenty below 7.0 nM, so weak values seen in few replicates may be background.